Laboratory results published in BindingDB's records for doi:10.1124/jpet.106.103382 (Wyeth Research, 2006).
pKi: −log10 of the molar value. Several values for one entry are separate records, joined by “and”; a condition that tells them apart may be missing. Equal entries are not always repeated.

Protein sequences, listed by entry. Tags and fused reporters are not part of them.
UniProt P23975, whole entry: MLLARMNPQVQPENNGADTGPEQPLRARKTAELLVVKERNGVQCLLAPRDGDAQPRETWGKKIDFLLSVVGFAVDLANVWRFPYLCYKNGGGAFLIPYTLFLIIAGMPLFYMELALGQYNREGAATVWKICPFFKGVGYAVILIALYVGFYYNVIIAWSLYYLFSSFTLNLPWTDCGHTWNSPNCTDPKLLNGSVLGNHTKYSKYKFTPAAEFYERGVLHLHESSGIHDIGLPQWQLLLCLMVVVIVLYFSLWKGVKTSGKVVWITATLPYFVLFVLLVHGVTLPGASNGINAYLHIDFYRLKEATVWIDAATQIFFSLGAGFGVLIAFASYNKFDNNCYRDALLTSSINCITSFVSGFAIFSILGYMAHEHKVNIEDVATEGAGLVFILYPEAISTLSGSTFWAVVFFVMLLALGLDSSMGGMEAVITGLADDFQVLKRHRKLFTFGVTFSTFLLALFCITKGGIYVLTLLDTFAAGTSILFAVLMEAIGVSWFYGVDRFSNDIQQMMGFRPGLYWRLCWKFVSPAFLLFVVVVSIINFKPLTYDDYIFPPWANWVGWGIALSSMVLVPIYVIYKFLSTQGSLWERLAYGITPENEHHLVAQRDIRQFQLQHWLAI
UniProt Q01959, whole entry: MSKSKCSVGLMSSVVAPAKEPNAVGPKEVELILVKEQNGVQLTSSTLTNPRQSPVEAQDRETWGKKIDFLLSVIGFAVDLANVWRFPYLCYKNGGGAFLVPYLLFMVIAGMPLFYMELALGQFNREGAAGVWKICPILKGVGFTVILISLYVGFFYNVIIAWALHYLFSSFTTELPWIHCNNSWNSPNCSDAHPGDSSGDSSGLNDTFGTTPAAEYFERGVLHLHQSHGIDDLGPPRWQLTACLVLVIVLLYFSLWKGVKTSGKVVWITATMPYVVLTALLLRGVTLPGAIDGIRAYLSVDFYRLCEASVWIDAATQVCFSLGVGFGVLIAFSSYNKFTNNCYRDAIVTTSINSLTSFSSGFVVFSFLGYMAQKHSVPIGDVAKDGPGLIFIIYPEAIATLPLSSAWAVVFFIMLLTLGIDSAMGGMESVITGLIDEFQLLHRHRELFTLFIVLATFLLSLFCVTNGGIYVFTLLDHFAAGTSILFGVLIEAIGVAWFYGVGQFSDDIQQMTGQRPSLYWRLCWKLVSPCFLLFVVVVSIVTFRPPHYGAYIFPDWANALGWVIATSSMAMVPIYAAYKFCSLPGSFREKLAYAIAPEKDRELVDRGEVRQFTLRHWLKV
UniProt P31645, whole entry: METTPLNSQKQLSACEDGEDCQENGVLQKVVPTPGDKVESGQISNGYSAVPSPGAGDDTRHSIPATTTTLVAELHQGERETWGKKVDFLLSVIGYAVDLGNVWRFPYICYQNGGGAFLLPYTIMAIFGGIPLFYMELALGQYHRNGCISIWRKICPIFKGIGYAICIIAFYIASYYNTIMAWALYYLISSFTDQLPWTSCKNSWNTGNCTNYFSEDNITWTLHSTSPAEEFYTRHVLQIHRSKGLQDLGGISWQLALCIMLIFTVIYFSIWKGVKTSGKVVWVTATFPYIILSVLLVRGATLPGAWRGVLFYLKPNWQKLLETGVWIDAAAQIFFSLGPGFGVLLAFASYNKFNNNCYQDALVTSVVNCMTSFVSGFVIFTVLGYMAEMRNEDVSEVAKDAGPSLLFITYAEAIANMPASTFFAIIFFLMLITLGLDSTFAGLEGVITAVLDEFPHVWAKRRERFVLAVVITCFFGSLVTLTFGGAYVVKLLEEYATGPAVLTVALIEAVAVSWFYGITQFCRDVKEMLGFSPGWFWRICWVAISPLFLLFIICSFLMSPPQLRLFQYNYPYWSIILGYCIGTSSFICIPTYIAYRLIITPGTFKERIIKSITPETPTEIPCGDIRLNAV

What was measured:
[1] = target: Sodium-dependent noradrenaline transporter (Homo sapiens, UniProt P23975)
[2] = target: Sodium-dependent dopamine transporter (Homo sapiens, UniProt Q01959)
[3] = target: Sodium-dependent serotonin transporter (Homo sapiens, UniProt P31645)

pKi [1]: 6.25 and 5.47 and 6.27 | pKi [2]: < 5.00 | pKi [3]: 7.33
Compound: CN(C)CC(c1ccc(O)cc1)C1(O)CCCCC1 (stereo not drawn) [CAS_386750-22-7]
